Screening data: PubChem, National Center for Advancing Translational Sciences (NCATS)
Hits are enriched below; roughly 3.7% of the tested compounds scored in any of these assays.
ClpP mod – qHTS Assay for Activators of ClpP; ATP-dependent Clp protease proteolytic subunit (Bacillus subtilis (strain 168)), P80244; purified B. subtilis ClpP, FRET peptide cleavage, 20 min; Potency, µM (highest dose often 57.5 µM), for the others: at the top dose activity change, negative = active; hit rate 1.9% among 340,000; active = well fitted falling curve with a large enough effect; inconclusive = small, poorly fitted or top-dose-only effect; inactive = no such curve, though single readings can be large or run the other way; also: potency is read from the fitted curve at half-maximal effect; the source files actives as falling curves though it sought activators and does not explain the sign; nearly all actives have a fitted effect of over 65% in size
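Purified B. subtilis ClpP, 10 microg/mL final in Tris/HCl pH8 with KCl, BSA, glycerol and Tween-20, cleaved an Abz/nitrotyrosine-quenched decapeptide. Fluorescence (ex 320, em 430) was read at 0 and 20 min at room temperature. Delta was normalized to 5.8 microM ADEP and DMSO/no-enzyme controls.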
miR-21 reporter – miR-21 reporter, rising signal | HeLa miR-21 FLuc reporter, luciferase, 48 h | Potency, µM (doses to about 38.3 µM), inactives show at the top dose reporter change, positive = more light | 340,000 tested, under 10 active | AID 2288; active = well fitted rising curve with a large enough effect; inconclusive = small, poorly fitted or top-dose-only effect; inactive = no such curve, though single readings can be large or run the other way;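 note: % of control where 0% means no effect; miR-21 action dims this reporter so a rising signal means less miR-21 action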
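Luminescence from a firefly luciferase reporter carrying a miR-21 binding site downstream, stably expressed under a CMV promoter in HeLa cells that make miR-21 endogenously, reports miRNA modulation after 48 h compound exposure up to approximately 40uM final.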
Nrf2 inh – inhibitors of Nrf2 signaling; Potency, µM (doses to about 46 µM), for the others: at the top dose activity change, negative = inhibition, hits mostly inhibitors; A549 ARE-Fluc reporter, luciferase luminescence, 18-24 h; hit rate 2.1% among 360,000; also: potency is read from the fitted curve at half-maximal effect; % is scaled to controls: 0 for no effect and ±100 for the full control effect; nearly all actives have a fitted effect of over 60% in size
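A549 ARE_Fluc cells, 5000/well, 5% FBS OPTI-MEM; compounds in dose-response, 18-24 h at 37 °C/5% CO2; CellTiter-Fluor viability read (Ex 405/Em 525), then BugLite luciferase luminescence = Nrf2 activity.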
Nrf2 ARE act – Nrf2 pathway activation. AID 624171. hit rate 0.31% among 410,000. Potency, µM (series often up to 46.1 µM), inactives show top-dose activation, hits mostly activators. AREc32 ARE-luciferase reporter (MCF7-derived line), luminescence, 24 h; also: potency is read from the fitted curve at half-maximal effect; % of control where 0% means no effect; nearly all actives have a fitted effect of over 65% in size
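Steps: seed AREc32_Fluc cells (1000/well, 5% FBS OPTI-MEM); incubate overnight at 37 deg C; add 23 nL compound; incubate 24 hr; add Steady-Glo; hold 30 min RT; read luminescence.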
A549 viability – kills or reduces viability of A549 cells in Nrf2 counter-screen; hit rate 0.16% among 390,000; Potency, µM (top dose mostly 46 µM), without a hit: top-dose activity change, negative = cytotoxicity, hits mostly inhibitors; AID 504648; A549 ARE-Fluc cells, CellTiter-Fluor viability, 18-24 h; also: potency is read from the fitted curve at half-maximal effect; % is scaled to controls: 0 for no effect and ±100 for the full control effect
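Cytotoxicity counterscreen: CellTiter-Fluor fluorescence was measured in A549 ARE_Fluc cells after 18-24 h of compound exposure in a concentration series. The subsequent BugLite luminescent read reports ARE-luciferase activity.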
p53 reactivator – re-activators of mutant p53; H1299 p53-A138V BP100-luciferase reporter, luminescence, 24 h; Potency, µM (highest dose often 92.2 µM), without a hit: top-dose activity change, positive = activation, actives largely listed as activators; hit rate 0.063% among 320,000; also: potency is read from the fitted curve at half-maximal effect; % of control where 0% means no effect; nearly all actives have a fitted effect of over 45% in size
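H1299 (p53-null), stable ts p53-A138V + BP100-Luc; 1000 cells/well, Opti-MEM/10% FBS; cpd 4 pt, 1:5; 24 h, 37 deg C, 5% CO2; detection reagent 10 min RT; luminescence.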
ClpP validation – inhibits B. subtilis ClpP protease, hit validation; purified B. subtilis ClpP, FRET-FV substrate cleavage, 20 min; hit rate 40% among 470; shares compounds with ClpP mod; AID 743245; Potency, µM (highest dose often 57.5 µM), for inactives: top-dose activity change, negative = inhibition, actives largely listed as inhibitors; also: potency is read from the fitted curve at half-maximal effect; % is scaled to controls: 0 for no effect and ±100 for the full control effect; nearly all actives have a fitted effect of over 70% in size
Numbers without * were called inactive. Unless noted, calls follow the shape of the dose curve; as a rule, active = well fitted curve in the direction sought with a large enough effect; inconclusive = small, poorly fitted or top-dose-only effect, or another doubt; inactive = no such curve, though single readings can be large; an effect the other way counts as inactive or inconclusive.

`O=C(Nc1ccc2ccccc2c1)C(c1ccccc1)n1c(=O)c(-c2cc3ccccc3[nH]2)nc2ccccc21` (stereo not given) gave ClpP mod 50% and ClpP validation 13%.
COc1ccc(CC(=O)NCc2ccc3c(c2)CCN3C(=O)c2ccc(C)cc2)cc1OC was read as ClpP mod -1%, miR-21 reporter 5%, Nrf2 ARE act 5% and A549 viability -2%.
For CCCCCNC(=O)C(c1ccc(-c2ccccc2)cc1)n1c(=O)c(-c2cc3ccccc3[nH]2)nc2ccccc21 (stereo not given) the results were ClpP mod 48% and ClpP validation 14%.
Screening Cc1cccc(C)c1NC(=O)C(c1cccc2ccccc12)n1c(=O)c(-c2cc3ccccc3[nH]2)nc2ccccc21 (stereo not given) returned ClpP mod 54% and ClpP validation 8%.
Screening COc1ccccc1NC(=O)CN1C(=O)c2cccc3cccc1c23 returned ClpP mod 7%, miR-21 reporter 12%, Nrf2 inh -15%, Nrf2 ARE act 12% and A549 viability 0%.
`CC(=O)c1ccc(N2C(=O)N(Cc3ccccc3C#N)c3ccccc3S2(=O)=O)cc1` gave ClpP mod 0%, miR-21 reporter -13%, Nrf2 ARE act -1% and A549 viability 0%.
Screening COc1ccc(CCNC(=O)CSc2n[nH]c(-c3ccccc3Cl)n2)cc1OC returned ClpP mod -3%, miR-21 reporter 21%, Nrf2 ARE act 5% and A549 viability inconclusive.
For c1ccc2c(c1)NC1(CCCCC1)n1c-2nc2ccccc21 the results were ClpP mod 2.5µM*, miR-21 reporter -13%, Nrf2 ARE act 2%, A549 viability 0%, p53 reactivator inconclusive and ClpP validation 14µM*.
CC1(c2ccccn2)Nc2ccccc2-c2nc3ccccc3n21 (stereo not given) was read as ClpP mod 22%, miR-21 reporter -25%, Nrf2 inh 12%, Nrf2 ARE act 6%, A549 viability -3% and p53 reactivator 17%.
Screening O=C(NCCc1ccccc1F)C1CC(=O)N(c2cccc(C(F)(F)F)c2)C1 (stereo not given) returned ClpP mod -2%, Nrf2 inh 7%, Nrf2 ARE act -1% and A549 viability -3%.
For COc1ccc(NC(=O)COC(=O)c2c(NC(C)=O)sc(C)c2C)cc1 the results were ClpP mod -13% and Nrf2 ARE act 2%.
For COc1c(C)cccc1C(=O)Nc1ccc(-c2nc3ccccc3s2)c(Cl)c1 the results were ClpP mod 7.9µM*, miR-21 reporter -15%, Nrf2 inh 26µM*, Nrf2 ARE act 0%, A549 viability -23% and ClpP validation -1%.
`CCOc1ccc(OCCC(=O)Nc2ccccc2C(=O)NC2CC2)cc1` gave ClpP mod -6% and Nrf2 ARE act 0%.
Screening O=C(CCc1ccc(S(=O)(=O)N2CCOCC2)cc1)N1CCc2ccccc2C1 returned ClpP mod 424%, miR-21 reporter 2%, Nrf2 inh 2%, Nrf2 ARE act 0%, A549 viability 6%, p53 reactivator -1% and ClpP validation 0%.
For CCCOc1ccc(NC(=O)CC2C(=O)N(c3ccccc3)C(=O)N2CCC(C)C)cc1 (stereo not given) the results were ClpP mod -1%, miR-21 reporter 9%, Nrf2 inh 9%, Nrf2 ARE act 4% and A549 viability -30%.

Structural class: those above with a Cl atom
Screening COc1ccc(CCNC(=O)CSc2n[nH]c(-c3ccccc3Cl)n2)cc1OC returned ClpP mod -3%, miR-21 reporter 21%, Nrf2 ARE act 5% and A549 viability inconclusive.
For COc1c(C)cccc1C(=O)Nc1ccc(-c2nc3ccccc3s2)c(Cl)c1 the results were ClpP mod 7.9µM*, miR-21 reporter -15%, Nrf2 inh 26µM*, Nrf2 ARE act 0%, A549 viability -23% and ClpP validation -1%.
